Patent US20030095958A1, “Inhibitors of bace” (priority 2001, published 2003)

Protein sequences, listed by entry. Tags and fused reporters are not part of them. Residues count along the entry.
UniProt P56817, 46-501 limits assumed: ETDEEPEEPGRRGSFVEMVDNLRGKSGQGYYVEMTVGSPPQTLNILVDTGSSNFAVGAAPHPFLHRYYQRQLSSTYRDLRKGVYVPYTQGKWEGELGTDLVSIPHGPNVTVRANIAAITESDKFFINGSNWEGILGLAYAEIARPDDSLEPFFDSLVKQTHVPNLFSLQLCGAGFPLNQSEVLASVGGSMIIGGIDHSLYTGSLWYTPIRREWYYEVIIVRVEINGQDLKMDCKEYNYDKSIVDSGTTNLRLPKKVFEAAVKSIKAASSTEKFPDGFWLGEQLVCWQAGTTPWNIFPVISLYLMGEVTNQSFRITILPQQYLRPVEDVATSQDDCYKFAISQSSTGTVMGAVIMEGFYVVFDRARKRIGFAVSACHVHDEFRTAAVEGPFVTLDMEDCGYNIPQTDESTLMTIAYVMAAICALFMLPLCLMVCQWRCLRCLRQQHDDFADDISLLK

Target: BACE (Homo sapiens, UniProt P56817)
Test: Ki Determination for the Inhibition of BACE (FS-1 peptide fluorescence cleavage assay)
Conditions: apparent Ki; 50 nM BACE, 10 μM FS-1 substrate, 0.1M sodium acetate pH 4.5
Experimental: Compounds were tested against BACE activity using the following modifications of the method described in J. Ermolieff et al. (2000) Biochemistry 39(51):16263.
All compound evaluations were performed in 0.1M sodium acetate (buffer), pH, 4.5, 10 μM substrate (FS-1 peptide as described in the reference above; this is commercially available), varying concentrations of the test compound or control (DMSO to yeild 2% vol/vol), and 50 nM BACE. The assay volume is 100 μL.
Two microliters of the test compound dissolved in DMSO are added to each well in a 96-well microtiter plate. Seventy eight microliters of BACE are mixed with buffer and added to each well then incubated at room temperature for 15 minutes. A stock solution of 50 μM FS-1 substrate was prepared by addition of an aliquot of FS-1 substrate which was dissolved in DMSO to the buffer and mixed well. The reaction is initiated by addition of 20 μL of the FS-1 mix to the remaining, preincubated assay components. The cleavage reaction of substrate to product is measured using a Molecular Devices fluorescence plate reader with the excitation and emission filter pairs of 355 nm and 495 nm, respectively. Apparent Ki values are determined by fitting the data to the integrated equation for competitive tight binding inhibition.

Ki: 3 to 30 µM
Compound: CC(NC(=O)C1CNCCC1c1ccc(-c2ccccc2)cc1)c1ccc2ccccc2c1 (single isomer, unassigned)
